The chains behind the UniProt entries cited, without tags or fusion partners.
Neuropilin-1 (Homo sapiens), O14786, UniProt O14786, whole entry, looked up: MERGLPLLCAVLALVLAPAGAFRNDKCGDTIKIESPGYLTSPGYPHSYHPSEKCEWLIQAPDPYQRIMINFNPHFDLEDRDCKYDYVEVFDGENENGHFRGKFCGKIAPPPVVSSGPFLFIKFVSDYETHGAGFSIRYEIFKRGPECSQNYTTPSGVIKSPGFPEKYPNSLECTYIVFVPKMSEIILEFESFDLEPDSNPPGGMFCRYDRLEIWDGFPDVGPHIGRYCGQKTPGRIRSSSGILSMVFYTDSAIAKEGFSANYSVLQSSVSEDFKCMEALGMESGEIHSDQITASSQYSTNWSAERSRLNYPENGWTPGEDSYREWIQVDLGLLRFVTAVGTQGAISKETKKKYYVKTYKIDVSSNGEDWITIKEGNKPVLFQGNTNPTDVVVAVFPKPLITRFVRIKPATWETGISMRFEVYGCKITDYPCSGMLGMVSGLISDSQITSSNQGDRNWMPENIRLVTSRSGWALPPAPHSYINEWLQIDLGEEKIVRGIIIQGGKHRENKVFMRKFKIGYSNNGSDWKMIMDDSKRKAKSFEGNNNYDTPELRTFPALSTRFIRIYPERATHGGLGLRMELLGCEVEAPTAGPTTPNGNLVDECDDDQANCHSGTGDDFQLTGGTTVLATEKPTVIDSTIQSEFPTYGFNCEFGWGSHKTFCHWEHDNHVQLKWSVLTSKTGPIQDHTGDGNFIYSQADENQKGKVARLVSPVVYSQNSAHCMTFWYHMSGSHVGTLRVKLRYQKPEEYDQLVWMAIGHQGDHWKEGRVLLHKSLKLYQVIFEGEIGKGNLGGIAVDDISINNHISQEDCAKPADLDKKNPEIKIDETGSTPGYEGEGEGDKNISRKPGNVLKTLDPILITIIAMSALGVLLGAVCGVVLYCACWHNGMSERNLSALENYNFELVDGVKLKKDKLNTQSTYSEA
Melanocortin receptor 4 (Homo sapiens), P32245, UniProt P32245, whole entry, looked up: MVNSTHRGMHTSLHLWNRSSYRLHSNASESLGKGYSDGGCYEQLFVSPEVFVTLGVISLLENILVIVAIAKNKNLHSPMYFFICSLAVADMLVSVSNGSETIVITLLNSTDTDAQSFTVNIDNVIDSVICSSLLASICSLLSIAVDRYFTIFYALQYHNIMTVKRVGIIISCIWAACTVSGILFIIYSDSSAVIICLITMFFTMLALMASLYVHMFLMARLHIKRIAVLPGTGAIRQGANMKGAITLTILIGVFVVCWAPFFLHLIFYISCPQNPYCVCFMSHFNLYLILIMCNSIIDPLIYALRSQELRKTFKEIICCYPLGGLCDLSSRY

# The list is not random: actives were taken first. Their share in the collection is about 2.3%.
# ASAP1 inh: inhibitors of human ASAP1 ArfGAP activity, primary screen, biochemical, fluorescence polarization. ASAP1-stimulated ARF1 GTP hydrolysis, GDP FP detection. inhibition, % at 16.5 µM. Arf-GAP with SH3 domain, ANK repeat and PH domain-containing protein 1 (Homo sapiens), …. AID 624377, 2012. 360,000 compounds, 0.19% hits; in the data active means inhibition above about 25%;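 further: 0% = vehicle with enzyme and substrate and 100% = no enzyme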
# ARFGAP1 inhibitor: inhibitors of rat ARFGAP1 GAP activity, primary screen, biochemical, fluorescence polarization, GDP tracer; Arfgap1-stimulated ARF1 GTP hydrolysis, GDP FP detection; 360,000 compounds, 0.26% hits; inhibition, % at 16.5 µM;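 active means inhibition above a per-plate limit, mean inhibition of low control wells plus 3 SD, cut at about 25% in these data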;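 further: 0% = DMSO wells with enzyme and 100% = wells lacking Arfgap1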
#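 material = rat Arfgap1 catalytic domain, aa 1-136 | also added = human ARF1(Δ1-17)-GTP substrate | compound dosing = one concentration, 16.5 µM, DMSO 1.26% | times = GTP hydrolysis reaction 2 h at 25 °C | measured by = FP, GDP Alexa 633 tracer displaced from anti-GDP antibody, 620/688 nm | evaluation = percent inhibition of Arfgap1-stimulated GTP hydrolysis | replication = single well per compound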
# UUG fidelity: alters start codon recognition fidelity in yeast; S. cerevisiae UUG-firefly luciferase reporter, luminescence/redox ratio; activity score, % at 18.7 µM; actives 0.13% (n = 350,000); AID 602363;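 active = replicate mean at a twofold rise or more, about +100% in these data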;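 also: firefly luciferase made from a UUG start codon reports start codon fidelity; reporter light over untreated wells divided by growth signal over untreated wells; some hits fall short of that in this replicate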
# CendR NRP1 mod: modulators of CendR peptide binding to NRP-1, primary screen, biochemical, fluorescence polarization, uHTS. inhibition, % at 25 µM. 360,000 compounds, 0.85% hits. FAM-RPARPAR peptide binding to NRP-1. AID 602438, 2012. Neuropilin-1 (Homo sapiens), O14786;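 active means inhibition or corrected inhibition above about 18%, plus a signal ratio from 0.5 to 1.5, limit read from the data, passing the limit was not always enough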
# MC4R antag cAMP: MC4R antagonists of cAMP signaling, primary screen, cell-based, TR-FRET, antagonist arm of biased-ligand search; Melanocortin receptor 4 (Homo sapiens), P32245; MC4R-expressing cells, MTII-stimulated cAMP, LANCE TR-FRET; inhibition, % at 6.5 µM; 360,000 compounds, 0.48% hits; AID 540295, 2011;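 active means inhibition above its plate's cutoff, the mean of tested wells on that plate plus 3 SD, cut at about 29% in these data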;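 further: 0% = Melanotan II alone and 100% = Melanotan II plus saturating MCL0020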
#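 System: U2OS cells stably expressing human melanocortin 4 receptor (MC4R). Reagent: Melanotan II challenge after compound preincubation. Doses: 6.5 µM. Times: 30-min compound, 1-h challenge, 1-h detection, room temperature. Measured by: TR-FRET with Eu-cAMP and labeled anti-cAMP, 671 nm. Replicates: singlicate.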
# MC4R barr agon: MC4R agonists recruiting beta-arrestin, primary screen, cell-based, luminescence, agonist arm of biased-ligand search | Melanocortin receptor 4 (Homo sapiens), P32245 | U2OS MC4R beta-arrestin complementation; percent of melanotan II response, DMSO zero | activation, % at 8.9 µM | 360,000 compounds, 0.98% hits | AID 540308, 2011;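 active means activation above a per-plate cutoff, the mean activation of sample wells on that plate plus 3 SD, cut at about 8% in these data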
# cAMP nonselect: nonselective cAMP signaling inhibitors, parental cells, counter-screen for MC4R biased antagonist project, cell-based, TR-FRET, U2OS, forskolin, triplicate | AID 602193, 2012 | inhibition, % at 6.5 µM | 1,600 compounds, 26% hits | LANCE TR-FRET | shares compounds with MC4R antag cAMP;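 active means mean inhibition over triplicates above the low-control well mean plus 3 SD, set per campaign, cut at about 13% in these data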;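 further: signal is single emission at 671 nm which falls as cellular cAMP rises; 0% = forskolin-stimulated wells and 100% = buffer without forskolin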
# MC4R cAMP antag: MC4R cAMP antagonists, retest, confirmation, cell-based, TR-FRET; shares compounds with MC4R antag cAMP; MC4R-expressing cells, MTII-stimulated cAMP; inhibition, % at 6.5 µM; 1,600 compounds, 27% hits; AID 602195, 2012; in the data active means inhibition above about 29%;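 further: 0% = agonist stimulated wells alone and 100% = agonist stimulated wells plus saturating reference antagonist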
# Active calls of the source: *; nt = no result; + = active, no number.
# The first 2 records as a preview:
# Values in the order – ASAP1 inh | ARFGAP1 inhibitor | UUG fidelity | CendR NRP1 mod | MC4R antag cAMP | MC4R barr agon | cAMP nonselect | MC4R cAMP antag
ClCC1NCC(c2ccccc2Cl)c2c1[nH]c1ccccc21 (centres undefined)
    0 | 4 | nt | -46 | 36* | 3 | 2 | 3
C[C@@H]1CCCCO[C@H](CN(C)S(C)(=O)=O)[C@H](C)CN([C@@H](C)CO)C(=O)c2cc(NS(=O)(=O)c3cn(C)cn3)ccc2O1
    nt | nt | 2 | nt | nt | nt | nt | nt

# The whole of this part, from the start:
# Values in the order – ASAP1 inh | ARFGAP1 inhibitor | UUG fidelity | CendR NRP1 mod | MC4R antag cAMP | MC4R barr agon | cAMP nonselect | MC4R cAMP antag
ClCC1NCC(c2ccccc2Cl)c2c1[nH]c1ccccc21 (centres undefined)
    0 | 4 | nt | -46 | 36* | 3 | 2 | 3
C[C@@H]1CCCCO[C@H](CN(C)S(C)(=O)=O)[C@H](C)CN([C@@H](C)CO)C(=O)c2cc(NS(=O)(=O)c3cn(C)cn3)ccc2O1
    nt | nt | 2 | nt | nt | nt | nt | nt
Cc1cc(Br)c2nc3c(c(C(=O)O)c2c1)CCCCC3
    -6 | 5 | nt | 2 | + | 3 | + | nt
NNC(=O)CNC(=O)CNS(=O)(=O)c1ccccc1
    4 | -4 | nt | 7 | 29* | -4 | -2 | -7
COc1cc2c(=O)n(CCCC(=O)NCC3CCCO3)c(=O)n(CC(=O)c3ccc(F)cc3)c2cc1OC (centres undefined)
    4 | 6 | nt | 12 | 30* | 0 | 0 | -3
C[C@H](CO)N1C[C@H](C)[C@@H](CN(C)C(=O)C2CCC2)Oc2cc(C3=CCCC3)ccc2S1(=O)=O
    nt | nt | -9 | nt | nt | nt | nt | nt
Cc1nc(-c2ccccc2)[nH]c(=O)c1Oc1ccc(Cl)cc1Cl
    -12 | -3 | -14 | 11 | 10 | 2 | nt | nt
O=c1[nH]c(=S)[nH]cc1Oc1ccc(Cl)cc1Cl
    0 | 2 | -20 | -12 | 36* | 1 | 3 | 2
COc1ccc(NC(=O)N(C)C[C@@H]2OCCCC[C@@H](C)Oc3ccc(NC(=O)c4ccccc4)cc3C(=O)N([C@H](C)CO)C[C@@H]2C)cc1
    nt | nt | 6 | nt | nt | nt | nt | nt
C[C@@H]1CN([C@H](C)CO)C(=O)c2cc(NS(=O)(=O)c3cccs3)ccc2O[C@@H]1CN(C)C
    nt | nt | -13 | nt | nt | nt | nt | nt
CCSC1=C(C#N)C(CC(C)C)C2=C(CCCC2=O)N1 (centres undefined)
    1 | -6 | -19 | -7 | 34* | -2 | 1 | 14
Cc1ccc(S(=O)(=O)N(C)C[C@H]2OCCCC[C@H](C)Oc3ccc(NC(=O)c4ccncc4)cc3C(=O)N([C@@H](C)CO)C[C@@H]2C)cc1
    nt | nt | 8 | nt | nt | nt | nt | nt
CCS(=O)(=O)c1ccc2oc(Nc3cccc(OC)c3)nc2c1
    -1 | -8 | -11 | 2 | 31* | 1 | 1 | -9
Cc1ccc(S(=O)(=O)N(C)C)cc1NC(=O)CSc1nc2ccccc2c(=O)n1CC1CCCO1 (centres undefined)
    4 | -12 | -17 | 10 | 14 | -2 | nt | nt
Cc1ccc(S(=O)(=O)N(C)C)cc1NC(=O)Cn1c(CN2CCOCC2)nc2ccccc2c1=O
    -3 | 9 | nt | 3 | 36* | -3 | 0 | 6
Cc1ccc(Nc2nc(N/N=C/c3c[nH]c4ccccc34)nc(N3CCOCC3)n2)cc1
    12 | 15 | nt | 0 | 31* | 3 | 5 | 19
CCNC(=O)C[C@@H]1C=C[C@H](NC(=O)NC2CCCCC2)[C@H](CO)O1
    nt | nt | -19 | nt | nt | nt | nt | nt
C[C@@H]1CN([C@H](C)CO)C(=O)c2cc(NS(C)(=O)=O)ccc2O[C@@H](C)CCCCO[C@@H]1CN(C)Cc1ccc(C(=O)O)cc1
    nt | nt | 14 | nt | nt | nt | nt | nt
COc1ccc(N2CCN(CCC(=O)c3ccc4ccccc4c3)CC2)cc1
    -4 | 1 | -14 | 1 | 29* | -1 | 7 | 3
COc1ccc(C(=O)CCN2CCC(C)CC2)cc1
    6 | 4 | -16 | 1 | 31* | -2 | 9 | 17

# Another view of 2 compounds above:
mol	ASAP1 inh	ARFGAP1 inhibitor	UUG fidelity	CendR NRP1 mod	MC4R antag cAMP	MC4R barr agon	cAMP nonselect	MC4R cAMP antag
Cc1ccc(S(=O)(=O)N(C)C)cc1NC(=O)Cn1c(CN2CCOCC2)nc2ccccc2c1=O	-3	9	nt	3	36*	-3	0	6
Cc1ccc(Nc2nc(N/N=C/c3c[nH]c4ccccc34)nc(N3CCOCC3)n2)cc1	12	15	nt	0	31*	3	5	19
